# Test results: patent US11987804B2, “Rapamycin resistant cells” (Seattle Children's Hospital, priority 2018, dated 2024)
# How the values were obtained:
# CD4+ T cells [1] = test: Regulatory T cell marker phenotype of DISC-expressing edited Treg cells; assay type: cell-based, human; conditions: IL-2 50 ng/mL, rapamycin 10 nM or AP21967 100 nM
# [2] = test system: primary human CD4+ T cells; test: Three-phase expansion protocol for μDISC edTreg (flow cytometry HA/FOXP3, cell counts); assay type: cell-based
# Method: Recovered cells after Expansion Phase 0 were then transferred to the G-Rex flask and expanded in rapamycin (Expansion Phase 1; Days 3-10) to allow DISC edTreg enrichment, followed by addition of anti-CD3/CD28 beads (Expansion Phase 2; Days 10-15). The same AAV construct as shown in FIG. 13A was used in this experiment.
# After Expansion Phase 1 (Day 10), successfully edited cells were assessed by flow cytometry.
# [3] = test system: primary human CD4+ T cells; test: Two-phase expansion protocol for μDISC edTreg; assay type: cell-based; conditions: IL-2 50 ng/mL in media after editing, Expansion Phase 1
# Method: In a two-phase expansion protocol, cell expansion was conducted in two phases: Expansion Phase 1 tested rapamycin selection with or without IL-2 (50 ng/mL) in the recovery media, followed by Expansion Phase 2, addition of anti-CD3/CD28 beads, and removal of IL-2 from media. Generally, CD4 T cells were isolated at Day-4 from human PBMCs cultured in T cell media with 50 μg/mL IL-2 and anti-human CD3/CD28 beads. At Day-1, CD3/CD28 beads were removed. During Expansion Phase 1 (Days 0-9), gene editing was performed with CRISPR/Cas9 RNPs and AAV6 (an exemplary construct is shown in FIG. 13A). Cells were divided into three expansion cohorts as described below. Flow cytometry was performed at Day 2 to assess gene editing. At Day 9, cells were further divided into two expansion cohorts to test bead and antibody CD3/CD28 stimulation. Upon completion of Expansion Phase 2 (Day 16), flow cytometry was then performed to assess enrichment and expansion of edited cells.
# Without being bound to theory, it is believed that Expansion Phase 1 promotes selective enrichment of DISC edTreg/μDISC edTreg in rapamycin, which allows edited cells to out-compete unedited cells prior to Expansion Phase 2, where CD3/CD28 stimulation will result in an expansion in the number of DISC edTreg. […]
# CD4+ T cells [4] = test: Selective expansion of DISC/HA-FOXP3 edited Treg cells (flow cytometry for HA tag and FOXP3); assay type: cell-based, human; conditions: 50 ng/mL IL-2, 10 nM Rapamycin or 100 nM AP21967
# [5] = 5 ng/mL IL-2 during Expansion Phase 0
substance,measurement,setting,value
IL-2: interleukin-2 cytokine added to T cell culture media,CD25+ FOXP3+,CD4+ T cells [1],3.98%
same,CD25+ FOXP3−,CD4+ T cells [1],8.50%
same,CD 127+ FOXP3+,CD4+ T cells [1],0.26%
same,CD 127+ FOXP3−,CD4+ T cells [1],8.84%
same,CTLA4+ FOXP3+,CD4+ T cells [1],3.17%
same,CTLA4+ FOXP3−,CD4+ T cells [1],1.33%
same,ICOS+ FOXP3+,CD4+ T cells [1],3.32%
same,ICOS+ FOXP3−,CD4+ T cells [1],0.40%
same,LAG3+ FOXP3+,CD4+ T cells [1],1.85%
same,LAG3+ FOXP3−,CD4+ T cells [1],3.43%
same,number of μDISC edTreg (FIGS. 14A-14B),[2]; [5],slightly fewer
same,μDISC edTreg share of the total cells,[2]; [5],~70%
same,enrichment rate (%) relative to unedited cells,[2]; 50 ng/mL IL-2 during Expansion Phase 0,lowest enrichment rate
same,number of HA+ FOXP3+ edited cells (FIGS. 14A-14B),"[2]; 50 ng/mL IL-2 during Expansion Phase 0, day 10 and 15 post-editing",highest number
same,Day-3 flow cytometry Q1,"[2]; Q1 = HA- FOXP3+, Expansion Phase 0 additive, 10 nM rapamycin or 100 nM AP21967",4.42%
same,Day-3 flow cytometry Q2,"[2]; Q2 = HA+ FOXP3+ successfully edited cells, Expansion Phase 0 additive, 10 nM rapamycin or 100 nM AP21967",16.40%
same,Day-10 flow cytometry Q1,"[2]; after Expansion Phase 1, Q1 = HA- FOXP3+, Expansion Phase 0 additive, 10 nM rapamycin or 100 nM AP21967",2.59%
same,Day-15 flow cytometry Q1,"[2]; after Expansion Phase 2, Q1 = HA- FOXP3+, Expansion Phase 0 additive, 10 nM rapamycin or 100 nM AP21967",3.97%
same,total cell yield (FIG. 13B),[3],improved the total cell yield
same,"percentage of double positive cells (expressing HA-FOXP3), DISC/HA-FOXP3",CD4+ T cells [4]; 7 day post-treatment,4.92%
same,"percentage of double positive cells (expressing HA-FOXP3), Mock","CD4+ T cells [4]; 7 day post-treatment, mock cells",0.010%
same,"percentage of double positive cells (expressing HA-FOXP3), DISC/HA-FOXP3",CD4+ T cells [4]; 15 day post-treatment,2.12%
